Values of other authors, collected in patent US20220008553A1, “ANTI-ERBB2 ANTIBODY-DRUG CONJUGATE AND COMPOSITION THEREOF, PREPARATION METHOD THEREFOR, AND USE THEREOF” (SICHUAN KELUN-BIOTECH BIOPHARMACEUTICAL CO., LTD., priority 2015, published 2022).

Tested on: ErbB2-overexpressing breast cancer
Conditions: patients with immunohistochemistry (IHC) levels above 2+, Cobleigh et al. 1996; cited from earlier work

Substance: Trastuzumab: anti-ErbB2 antibody used clinically for ErbB2-overexpressing breast cancer; SEQ ID NO: 1 and 2
- median response: 9.1 months
